This is an account of results in EP4803139A2.

Test [1] addresses human PCSK9 (proprotein convertase subtilisin/kexin type 9), wild type (human) (UniProt Q8NBP7). The test can be described thus: cell-based or functional assay.
Test [2] has the same target. The test can be described thus: competition ELISA: 100 ng/mL biotinylated WT PCSK9 with 11F1, binding to captured LDLR (n=3). Background: In an ELISA, binding on a coated surface is turned into a signal by an enzyme label.

Where “and” joins values, the source holds several entries; their conditions need not be identical. Identical values can stand only once.

B1: 11F1, anti-PCSK9 antibody (antibody, V domains shown)
VH: EVQLVESGGGLVQPGGSLRLSCAASGFTFSNYWMSWVRQAPGKGLEWVASIKQDGSEKYYVDSVKGRFAISRDNAKNSLFLQMNSLRAEDTAVYYCARDLVLMVYDIDYYYYGMDVWGQGTTVTVSS
VL: DIVMTQSPLSLPVTPGEPASISCRSSQSLLHSNGYNYLDWYLQKPGQSPQLLIYLGSNRASGVPDRFSGSGSGTHLTLKISRVEAEDVGVYYCMQTLQTPLTFGGGTKVEIK
In test [1], B1 registered an EC50, block of WT PCSK9-mediated decrease in LDL uptake (HepG2 cells, BODIPY-LDL, 25 µg/mL WT PCSK9) of 124 nM. Further, the IC50 in test [2] was 4.4 nM to 8.1 nM (2×) and 5.9 nM.

By IC50 is commonly meant the point on the concentration scale where inhibition reaches its midpoint. Read a high IC50 as a need for much substance.
